Results on two compounds are retold here after ChEMBL document CHEMBL1146766, “Synthesis of 3a,4-dihydro-3H-[1]benzopyrano[4,3-c]isoxazoles, displaying combined 5-HT uptake inhibiting and alpha2-adrenoceptor antagonistic activities. Part 2: Further exploration on the cinnamyl moiety” (Bioorg Med Chem Lett, 2004).

Chains of the proteins cited; added tags and fusions are not shown.
UniProt P08913, whole entry: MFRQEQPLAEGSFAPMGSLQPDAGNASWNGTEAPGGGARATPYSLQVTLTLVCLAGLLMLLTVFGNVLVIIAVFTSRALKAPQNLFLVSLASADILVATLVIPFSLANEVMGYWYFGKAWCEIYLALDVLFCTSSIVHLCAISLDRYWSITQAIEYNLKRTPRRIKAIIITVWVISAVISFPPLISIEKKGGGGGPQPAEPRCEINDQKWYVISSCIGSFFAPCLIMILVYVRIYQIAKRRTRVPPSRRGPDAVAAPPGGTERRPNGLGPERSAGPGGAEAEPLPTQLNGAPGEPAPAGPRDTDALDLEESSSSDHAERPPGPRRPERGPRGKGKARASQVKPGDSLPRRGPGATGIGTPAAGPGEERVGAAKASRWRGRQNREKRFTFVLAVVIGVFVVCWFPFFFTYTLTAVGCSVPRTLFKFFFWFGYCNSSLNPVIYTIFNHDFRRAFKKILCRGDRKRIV

As usually defined, the Ki is a measure of affinity in units of concentration, obtained from inhibition or displacement.

Structures are written as SMILES.

The experiment addresses Alpha-2A adrenergic receptor (Homo sapiens, UniProt P08913). Put plainly: In vitro binding affinity to the human alpha-2A adrenergic receptor.

`COc1cc2c(cc1OC)C1=NO[C@@H](CN3CCN(C/C=C/c4ccccc4)CC3)[C@@H]1CO2` displayed a Ki of 8.8 nM.

For `COc1cc2c(cc1OC)C1=NO[C@@H](CN3CCN(C/C(C)=C/c4ccccc4)CC3)[C@@H]1CO2`, the affinity corresponds to a Ki of 0.8 nM.
